Assay [1] has as its target LgBiT-tagged human CXCR4 receptor (UniProt P61073). The assay can be described thus: FRET or BRET.
Assay [2] shares this target. The assay can be described thus: split reporter.

Amino acid sequences for entries named in this document (tags omitted). A change or cut given only in a name is not applied to a line headed by its entry. Residues count along the entry.
UniProt P61073: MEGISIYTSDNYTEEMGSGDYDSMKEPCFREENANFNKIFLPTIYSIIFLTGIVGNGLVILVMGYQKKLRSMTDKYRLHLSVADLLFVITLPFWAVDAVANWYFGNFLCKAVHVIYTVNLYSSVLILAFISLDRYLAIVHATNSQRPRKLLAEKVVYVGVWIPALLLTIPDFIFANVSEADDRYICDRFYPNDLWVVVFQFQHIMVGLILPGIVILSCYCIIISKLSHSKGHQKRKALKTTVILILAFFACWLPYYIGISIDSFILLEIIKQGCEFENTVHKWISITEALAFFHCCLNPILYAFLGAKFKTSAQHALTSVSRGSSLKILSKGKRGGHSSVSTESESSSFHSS
UniProt P48061, 22-89: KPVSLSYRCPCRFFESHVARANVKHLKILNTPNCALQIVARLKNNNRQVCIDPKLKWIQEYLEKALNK

“And” between values parts separate entries of the source, which are not always exact repeats. Equal entries are not always repeated.

For the substance “fluorescently-labelled CXCL12 (CXCL12-AF647) (from UniProt P48061-2 22-89) (ligand)”, in assay [1], the koff (usually the first-order rate constant of dissociation) is 0.00533 s⁻¹ and 0.007 s⁻¹; the pKD (usually the negative decadic logarithm of the KD, by convention in mol/L) is 7.8.

“CXCL12 (from UniProt P48061-2 22-89) (ligand)”: the pIC50 (in general, the negative decadic logarithm of the IC50, by convention in mol/L) in assay [2] was determined as 8.82.
